In the assay the target is PI3 KINASE (P110B/P85B) (Mus musculus, UniProt Q8BTI9). Conditions: 1 µM, ATP at Km.

Chains of the proteins cited; added tags and fusions are not shown. Lines headed by an entry give the natural chain unless they say otherwise; changes in a name come on top.
UniProt Q8BTI9: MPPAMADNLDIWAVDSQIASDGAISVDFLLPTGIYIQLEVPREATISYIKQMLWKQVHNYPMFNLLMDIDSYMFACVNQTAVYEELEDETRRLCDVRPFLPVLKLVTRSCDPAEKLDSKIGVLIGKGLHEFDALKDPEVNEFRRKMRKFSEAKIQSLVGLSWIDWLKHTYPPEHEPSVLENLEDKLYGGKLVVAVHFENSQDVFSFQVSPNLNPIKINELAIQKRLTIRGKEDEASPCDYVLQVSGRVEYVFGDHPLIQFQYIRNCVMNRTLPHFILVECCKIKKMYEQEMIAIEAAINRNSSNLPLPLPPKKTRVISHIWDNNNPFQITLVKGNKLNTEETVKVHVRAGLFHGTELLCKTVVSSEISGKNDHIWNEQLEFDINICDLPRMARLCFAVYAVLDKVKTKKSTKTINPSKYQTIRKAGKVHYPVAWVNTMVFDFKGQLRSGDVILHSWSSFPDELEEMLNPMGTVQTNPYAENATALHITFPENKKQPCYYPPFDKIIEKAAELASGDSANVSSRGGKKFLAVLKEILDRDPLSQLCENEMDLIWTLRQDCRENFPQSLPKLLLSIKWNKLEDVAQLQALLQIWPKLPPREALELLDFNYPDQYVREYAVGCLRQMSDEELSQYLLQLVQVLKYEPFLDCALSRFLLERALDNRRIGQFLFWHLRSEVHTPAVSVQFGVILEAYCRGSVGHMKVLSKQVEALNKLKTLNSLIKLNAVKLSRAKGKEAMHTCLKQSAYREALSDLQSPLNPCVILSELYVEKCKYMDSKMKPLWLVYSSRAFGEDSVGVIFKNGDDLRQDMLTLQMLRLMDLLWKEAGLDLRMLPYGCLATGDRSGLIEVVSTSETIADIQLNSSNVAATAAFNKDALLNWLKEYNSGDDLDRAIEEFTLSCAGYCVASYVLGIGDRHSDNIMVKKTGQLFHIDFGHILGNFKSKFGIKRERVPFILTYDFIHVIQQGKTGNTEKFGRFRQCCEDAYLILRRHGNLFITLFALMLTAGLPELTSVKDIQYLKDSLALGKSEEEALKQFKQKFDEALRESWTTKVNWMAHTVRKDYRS

Molecules are shown by their SMILES.

Turning to `COC1CN(C(=O)c2ccc3c(N)ncc(-c4ccc(-c5cnn(C)c5)cc4)c3c2)C1` [Compound 59], the percentage effect is reported as -1%.

The record behind these values is publication PMC4904262 (ACS Medicinal Chemistry Letters, 2016).
